{"source": "patent US8815846B2", "about": "“Family of antichagasics derived from imidazo[4,5-C][1,2,6]thiadiazine 2,2-dioxide” (Universidad de la Republica de Uruguay, priority 2009, dated 2014)", "system": "J774 murine macrophages", "test": "Non-specific cytotoxicity against J774 murine macrophages (MTT/formazan)", "assay_type": "cell-based", "settings": "48 hours, MTT", "method": "The cellular viability was determined based on the conservation of mitochondrial activity by the MTT/formazan method."}
{"compound": "CC(=O)N1CCN(c2ccc(OCC3COC(Cn4ccnc4)(c4ccc(Cl)cc4Cl)O3)cc2)CC1", "note": "(stereo not drawn) [Ketoconazole, reference compound]", "values": [{"measurement": "PC J774 macrophages (%) (percentage of non-specific cytotoxicity)", "setting": "100 μM compound", "value": 86.0, "unit": "%"}, {"measurement": "PC J774 macrophages (%) (percentage of non-specific cytotoxicity)", "setting": "200 μM compound", "value": 98.0, "unit": "%"}, {"measurement": "PC J774 macrophages (%) (percentage of non-specific cytotoxicity)", "setting": "400 μM compound", "value": 87.0, "unit": "%"}]}
